One experiment concerns the target TACE (Homo sapiens, UniProt P78536). Nature of the experiment: TACE inhibition experiment (in vitro). Type of experiment: biochemical. Particulars: read-out: IC50 value TACE; concentration required for 50% inhibition of enzyme activity.
The target of a further experiment is Human MMP1 (Homo sapiens, UniProt P03956). The experiment is described as follows: MMP1 inhibition experiment. Particulars: read-out: IC50 value MMP-1; concentration required for 50% inhibition of enzyme activity.
The next experiment addresses Human MMP2 (Homo sapiens, UniProt P08253). The experiment is described as follows: MMP2 inhibition experiment. The settings on record: read-out: IC50 value MMP-2; concentration required for 50% inhibition of enzyme activity.
A further experiment concerns the target Human MMP3 (Homo sapiens, UniProt P08254). The experiment is described as follows: MMP3 inhibition experiment. Particulars: read-out: IC50 value MMP-3; concentration required for 50% inhibition of enzyme activity.
In a further experiment the target is Human MMP9 (Homo sapiens, UniProt P14780). Nature of the experiment: MMP9 inhibition experiment. The settings on record: read-out: IC50 value MMP-9; concentration required for 50% inhibition of enzyme activity.
In another experiment the target is Human MMP13 (Homo sapiens, UniProt P45452). Nature of the experiment: MMP13 inhibition experiment. The settings on record: read-out: IC50 value MMP-13; concentration required for 50% inhibition of enzyme activity.
The target in the next experiment is Human MMP14 (Homo sapiens, UniProt P50281). The experiment is described as follows: MMP14 inhibition experiment. Particulars: read-out: IC50 value MMP-14; concentration required for 50% inhibition of enzyme activity.
Another experiment deals with Human MMP17 (Homo sapiens, UniProt Q9ULZ9). Nature of the experiment: MMP17 inhibition test. The settings on record: read-out: IC50 value MMP-17; concentration required for 50% inhibition of enzyme activity.
The target of another experiment is Human MMP8 (Homo sapiens, UniProt P22894). The experiment is described as follows: MMP8 inhibition experiment. The settings on record: read-out: IC50 value MMP-8; concentration required for 50% inhibition of enzyme activity.

By UniProt entry, the sequences of proteins in these tests, tags left out. Residues count along the entry.
UniProt P78536, 215-824 limits assumed: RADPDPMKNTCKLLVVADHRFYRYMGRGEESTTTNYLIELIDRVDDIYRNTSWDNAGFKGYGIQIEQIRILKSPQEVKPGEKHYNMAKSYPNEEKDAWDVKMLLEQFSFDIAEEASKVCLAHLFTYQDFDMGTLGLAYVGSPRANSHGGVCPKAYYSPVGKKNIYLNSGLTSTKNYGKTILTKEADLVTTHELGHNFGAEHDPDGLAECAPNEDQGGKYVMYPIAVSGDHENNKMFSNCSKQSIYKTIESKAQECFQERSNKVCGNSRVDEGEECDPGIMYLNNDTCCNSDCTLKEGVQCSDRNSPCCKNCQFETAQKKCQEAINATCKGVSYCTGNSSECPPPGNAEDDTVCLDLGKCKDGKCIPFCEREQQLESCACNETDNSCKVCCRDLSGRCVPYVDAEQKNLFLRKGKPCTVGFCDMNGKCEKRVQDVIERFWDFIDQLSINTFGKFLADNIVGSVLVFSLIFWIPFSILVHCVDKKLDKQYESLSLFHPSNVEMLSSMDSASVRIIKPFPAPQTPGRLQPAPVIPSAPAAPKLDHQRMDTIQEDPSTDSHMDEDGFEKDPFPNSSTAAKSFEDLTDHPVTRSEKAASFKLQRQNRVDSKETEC
UniProt P03956, 100-469 limits assumed: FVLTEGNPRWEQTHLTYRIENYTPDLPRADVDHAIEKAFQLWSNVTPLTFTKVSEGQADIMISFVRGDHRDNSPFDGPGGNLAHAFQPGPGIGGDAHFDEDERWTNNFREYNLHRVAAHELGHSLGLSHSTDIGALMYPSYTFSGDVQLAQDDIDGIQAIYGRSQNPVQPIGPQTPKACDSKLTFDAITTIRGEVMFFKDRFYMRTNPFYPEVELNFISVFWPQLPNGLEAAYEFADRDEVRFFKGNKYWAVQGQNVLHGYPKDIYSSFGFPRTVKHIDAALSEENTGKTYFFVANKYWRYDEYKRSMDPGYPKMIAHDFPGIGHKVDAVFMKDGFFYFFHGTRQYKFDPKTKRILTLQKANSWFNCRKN
UniProt P08253, 110-660 limits assumed: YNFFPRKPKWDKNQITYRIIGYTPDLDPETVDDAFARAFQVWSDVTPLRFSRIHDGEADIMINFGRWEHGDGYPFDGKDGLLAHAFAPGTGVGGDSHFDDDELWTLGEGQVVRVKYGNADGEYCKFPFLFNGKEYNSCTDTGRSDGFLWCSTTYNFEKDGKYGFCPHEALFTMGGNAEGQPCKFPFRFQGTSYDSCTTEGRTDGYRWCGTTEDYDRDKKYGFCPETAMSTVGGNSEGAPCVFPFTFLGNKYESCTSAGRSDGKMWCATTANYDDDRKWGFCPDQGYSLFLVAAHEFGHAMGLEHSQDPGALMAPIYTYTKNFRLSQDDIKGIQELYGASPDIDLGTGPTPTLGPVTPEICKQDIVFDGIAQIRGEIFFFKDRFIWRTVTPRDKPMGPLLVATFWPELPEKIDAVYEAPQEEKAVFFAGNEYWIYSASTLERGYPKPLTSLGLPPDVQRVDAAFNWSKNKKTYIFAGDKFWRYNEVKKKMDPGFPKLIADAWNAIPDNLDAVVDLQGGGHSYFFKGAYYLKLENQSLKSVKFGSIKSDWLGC
UniProt P08254, 100-272 limits assumed: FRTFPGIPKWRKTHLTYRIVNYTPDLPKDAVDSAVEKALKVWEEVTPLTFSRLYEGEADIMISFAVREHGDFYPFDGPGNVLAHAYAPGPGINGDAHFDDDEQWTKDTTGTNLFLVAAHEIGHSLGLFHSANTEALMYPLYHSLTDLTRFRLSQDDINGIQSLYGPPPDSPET
UniProt P14780, 107-707 limits assumed: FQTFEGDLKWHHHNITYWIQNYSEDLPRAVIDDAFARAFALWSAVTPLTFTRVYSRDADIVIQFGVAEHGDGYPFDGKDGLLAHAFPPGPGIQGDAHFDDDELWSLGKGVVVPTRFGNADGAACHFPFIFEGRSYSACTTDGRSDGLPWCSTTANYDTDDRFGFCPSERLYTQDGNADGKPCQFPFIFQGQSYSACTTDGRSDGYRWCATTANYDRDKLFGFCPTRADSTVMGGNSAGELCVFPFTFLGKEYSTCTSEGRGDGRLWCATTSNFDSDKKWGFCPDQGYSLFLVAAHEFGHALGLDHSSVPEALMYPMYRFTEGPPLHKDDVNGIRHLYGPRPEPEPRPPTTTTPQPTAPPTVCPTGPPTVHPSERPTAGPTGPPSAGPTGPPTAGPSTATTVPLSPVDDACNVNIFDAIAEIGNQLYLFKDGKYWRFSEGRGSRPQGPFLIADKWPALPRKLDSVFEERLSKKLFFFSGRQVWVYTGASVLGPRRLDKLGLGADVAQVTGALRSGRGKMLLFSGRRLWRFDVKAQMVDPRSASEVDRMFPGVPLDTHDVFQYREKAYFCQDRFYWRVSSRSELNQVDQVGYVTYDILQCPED
UniProt Q9ULZ9, 126-300 limits assumed: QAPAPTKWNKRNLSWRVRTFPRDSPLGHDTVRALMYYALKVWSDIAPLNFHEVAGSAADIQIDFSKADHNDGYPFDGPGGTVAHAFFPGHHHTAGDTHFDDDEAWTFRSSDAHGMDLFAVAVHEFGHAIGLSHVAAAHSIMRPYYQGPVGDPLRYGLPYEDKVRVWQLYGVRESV
UniProt P22894, 101-467 limits assumed: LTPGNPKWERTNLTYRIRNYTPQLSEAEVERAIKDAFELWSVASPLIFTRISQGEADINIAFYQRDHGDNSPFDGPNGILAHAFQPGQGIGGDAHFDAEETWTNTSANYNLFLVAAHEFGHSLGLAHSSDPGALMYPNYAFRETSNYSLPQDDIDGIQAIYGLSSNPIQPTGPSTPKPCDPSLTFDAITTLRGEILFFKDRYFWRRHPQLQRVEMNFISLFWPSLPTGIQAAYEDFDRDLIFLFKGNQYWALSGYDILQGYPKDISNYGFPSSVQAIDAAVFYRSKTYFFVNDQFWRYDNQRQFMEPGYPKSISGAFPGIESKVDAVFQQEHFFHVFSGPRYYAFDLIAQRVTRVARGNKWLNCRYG

Structures are written as SMILES.

As to `COc1cc(COc2ccc(S(=O)(=O)CC(CC3CCC(OC)(OC)CC3)N(O)C=O)cc2)cc(C)n1` (centres unmarked), the IC50 (in general, the point on the concentration scale where inhibition reaches its midpoint) was 0.23 µM at TACE; > 100 µM at Human MMP1; 1.8 µM at Human MMP2; 2.1 µM on Human MMP3; 40 µM at Human MMP9; 2 µM on Human MMP13. The IC50 turned out to be 70 µM at Human MMP14 and 5 µM at Human MMP17.

As for `Cc1cc(COc2ccc(S(=O)(=O)CC(/C=C3/CCN(CC(C)C)CC3C)N(O)C=O)cc2)c2ccccc2n1` (centres unmarked), the IC50 was 0.0063 µM at TACE; > 100 µM at Human MMP1; 50 µM at Human MMP2; 17 µM on Human MMP3; > 100 µM at Human MMP9; > 100 µM at Human MMP13. Moreover, the values for the IC50 on Human MMP14 and on Human MMP17 were > 100 µM and 6.6 µM, respectively.

With `Cc1cc(COc2ccc(S(=O)(=O)CC(C=C3CCN(C(=O)C(C)(C)C)CC3)N(O)C=O)cc2)c2ccccc2n1` (centres unmarked) [Example I-25, N-{1-[1-(2,2-Dimethylpropionyl)piperidin-4-ylidenemethyl]-2-[4-(2-methylquinolin-4-ylmethoxy)benzenesulfonyl]ethyl}-N-hyroxyformamide], the IC50 on TACE stood at 0.003 µM; on Human MMP1, 42 µM; at Human MMP2, 7 µM; on Human MMP8, 55 µM; on Human MMP13, 7 µM; on Human MMP14, 30 µM.

In the case of `Cc1cc(COc2ccc(S(=O)(=O)CC(/C=C3\CCN(CC(C)C)CC3C)N(O)C=O)cc2)c2ccccc2n1` (centres unmarked), the IC50 at TACE is 0.0061 µM; on Human MMP1, > 100 µM; at Human MMP2, 73 µM; at Human MMP3, 31 µM; on Human MMP8 it was > 100 µM; on Human MMP9, > 100 µM. Also, the half-maximal inhibitory concentration (IC50) was > 100 µM on Human MMP13, > 100 µM at Human MMP14 and 10 µM at Human MMP17.

Regarding `COc1cc(COc2ccc(S(=O)(=O)CC(C=C3CCC4(CC3)OCCO4)N(O)C=O)cc2)cc(C)n1` (centres unmarked), the IC50 at TACE was 0.31 µM; on Human MMP1, > 100 µM; on Human MMP2 it was 21 µM; on Human MMP3, 23 µM; on Human MMP9 it was 60 µM; at Human MMP13 it was 15 µM. Also, the results for the concentration for half-maximal inhibition (IC50) at Human MMP14 and at Human MMP17 were > 100 µM and 35 µM, respectively.

In the case of `Cc1ccnc(C(C)(CS(=O)(=O)c2ccc(OCc3cc(C)nc4ccccc34)cc2)N(O)C=O)c1` (centres unmarked), the half-inhibitory concentration (IC50) was 0.0081 µM on TACE; 82 µM at Human MMP1; > 100 µM at Human MMP2; 8 µM on Human MMP3; > 100 µM on Human MMP8; > 100 µM on Human MMP9. The half-inhibitory concentration (IC50) came out at 42 µM on Human MMP13, 62 µM on Human MMP14 and 4.2 µM at Human MMP17.

In the case of `COc1cc(COc2ccc(S(=O)(=O)CC(C=C3CCC(=O)CC3)N(O)C=O)cc2)cc(C)n1` (centres unmarked), the half-inhibitory concentration (IC50) at TACE was 0.23 µM; on Human MMP1 it was > 100 µM; at Human MMP2, 25 µM; at Human MMP3, 40 µM; at Human MMP9, > 100 µM; on Human MMP13, 15 µM. Moreover, the figures for the IC50 at Human MMP14 and at Human MMP17 were > 100 µM and 40 µM, respectively.

`CCCS(=O)(=O)N1CCC(=CC(CS(=O)(=O)c2ccc(OCc3cc(C)nc4ccccc34)cc2)N(O)C=O)C(C)C1` (centres unmarked): the concentration for half-maximal inhibition (IC50) on TACE was found to be 0.002 µM; on Human MMP1 it was 60 µM; at Human MMP2 it was 32 µM; on Human MMP3, 1.5 µM; on Human MMP8 it was 73 µM; on Human MMP9, 73 µM. The half-inhibitory concentration (IC50) on Human MMP13 worked out at 38 µM; on Human MMP14, 74 µM; on Human MMP17, 1.2 µM.

Turning to `Cc1cc(COc2ccc(S(=O)(=O)CC(CN3CCN(C(=O)OC(C)(C)C)CC3)N(O)C=O)cc2)c2ccccc2n1` (centres unmarked), the IC50 at TACE turned out to be 0.013 µM; at Human MMP1, 53 µM; at Human MMP2 it was 1 µM; at Human MMP3 it was 0.06 µM; on Human MMP8, 2.6 µM; at Human MMP9 it was 25 µM. Also, the concentration for half-maximal inhibition (IC50) on Human MMP13 was 1.8 µM; on Human MMP14, 22 µM; at Human MMP17 it was 0.035 µM.

On to `COc1cc(COc2ccc(S(=O)(=O)CC(C=C3CCOCC3)N(O)C=O)cc2)cc(C)n1` (centres unmarked), for which the IC50 on TACE was 0.1 µM; at Human MMP1, > 100 µM; on Human MMP2 it was 12 µM; at Human MMP3, 43 µM; on Human MMP9, > 100 µM; on Human MMP13, 8 µM. Besides, the IC50 at Human MMP14 is > 100 µM; at Human MMP17, 21 µM.

`COc1cc(COc2ccc(S(=O)(=O)CC(CC3CCC(=NO)CC3)N(O)C=O)cc2)cc(C)n1` (centres unmarked): the half-maximal inhibitory concentration (IC50) at TACE is 0.12 µM; on Human MMP1 it was > 100 µM; at Human MMP2, 3.3 µM; at Human MMP3, 8 µM; at Human MMP9 it was 50 µM; at Human MMP13, 3 µM. For the same compound, the half-maximal inhibitory concentration (IC50) turned out to be 70 µM at Human MMP14 and 4 µM at Human MMP17.

Take `COc1cc(COc2ccc(S(=O)(=O)CC(CC3CCC4(CC3)OCCO4)N(O)C=O)cc2)cc(C)n1` (centres unmarked): the IC50 at TACE was 0.8 µM; on Human MMP1, > 100 µM; on Human MMP2, 6 µM; on Human MMP3, 6 µM; on Human MMP9, 43 µM; on Human MMP13, 7 µM. The IC50 came to 70 µM on Human MMP14 and 13 µM on Human MMP17.

As for `Cc1cc(COc2ccc(S(=O)(=O)CC(N(O)C=O)C3(C)CCN(CC(C)C)CC3)cc2)c2ccccc2n1` (centres unmarked), the IC50 on TACE turned out to be 0.048 µM.

Take `COc1cc(COc2ccc(S(=O)(=O)CC(C=C3CCC(=NO)CC3)N(O)C=O)cc2)cc(C)n1` (centres unmarked): the concentration for half-maximal inhibition (IC50) was 0.07 µM at TACE; > 100 µM at Human MMP1; 9 µM on Human MMP2; 33 µM on Human MMP3; 90 µM on Human MMP9; 7 µM at Human MMP13. Further, the IC50 was > 100 µM on Human MMP14 and 21 µM at Human MMP17.

With `Cc1cc(COc2ccc(S(=O)(=O)CC(CC3CCOCC3)N(O)C=O)cc2)c2ccccc2n1` (centres unmarked) [Example I-29], the half-inhibitory concentration (IC50) is 0.02 µM on TACE; > 100 µM at Human MMP1; 5 µM on Human MMP2; 1.5 µM on Human MMP3; 30 µM on Human MMP8; 90 µM at Human MMP9. In addition, the IC50 on Human MMP13 is 4 µM; at Human MMP14 it was > 100 µM; at Human MMP17, 0.35 µM.

Take `Cc1cc(COc2ccc(S(=O)(=O)CC(CCC=C3CCOCC3)N(O)C=O)cc2)c2ccccc2n1` (centres unmarked): the 50% inhibitory concentration (IC50) on TACE is 0.006 µM; at Human MMP1, > 100 µM; on Human MMP2 it was 32 µM; at Human MMP3, 3.1 µM; on Human MMP8, 40 µM; at Human MMP9, > 100 µM. Further, the IC50 on Human MMP13 came out at 16 µM; at Human MMP14 it was 50 µM; at Human MMP17, 3 µM.

For the origin of these results see patent US7511144B2, “Reverse hydroxamic acid derivatives” (Kaken Pharmaceutical Co., Ltd., priority 2001, dated 2009).
